Values quoted from earlier work in article PMC11904221, “Repression of apelin Furin cleavage sites provides antimetastatic strategy in colorectal cancer” (EMBO Molecular Medicine, 2025).

Conditions: ref Vickers et al, 2002; cited from earlier work

apelin [reference compound]
in vivo half-life: < 5 min
